The results in this text go back to PubChem BioAssay AID631 (The Scripps Research Institute Molecular Screening Center, 2007).

Chains of the proteins cited; added tags and fusions are not shown. Lines headed by an entry give the natural chain unless they say otherwise; changes in a name come on top.
UniProt P37231: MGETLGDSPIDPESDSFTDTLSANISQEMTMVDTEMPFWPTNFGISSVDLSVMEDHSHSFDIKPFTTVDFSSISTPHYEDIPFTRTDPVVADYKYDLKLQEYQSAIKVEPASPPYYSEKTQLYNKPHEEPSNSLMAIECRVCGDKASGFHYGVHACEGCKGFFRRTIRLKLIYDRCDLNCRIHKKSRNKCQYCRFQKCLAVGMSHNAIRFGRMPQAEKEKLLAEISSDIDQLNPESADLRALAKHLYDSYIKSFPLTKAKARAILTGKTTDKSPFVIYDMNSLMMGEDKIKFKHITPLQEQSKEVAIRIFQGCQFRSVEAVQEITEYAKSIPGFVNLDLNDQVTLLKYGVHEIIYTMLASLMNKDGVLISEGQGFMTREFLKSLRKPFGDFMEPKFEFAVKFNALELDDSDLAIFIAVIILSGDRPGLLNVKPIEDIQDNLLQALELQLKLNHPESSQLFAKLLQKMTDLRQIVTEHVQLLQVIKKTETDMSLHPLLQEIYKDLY

The list shows a part of the results, in another mix than the full data. Calls of active or inactive are those of the source. Rule as the data show it: active = activation above about 19%; inactive = the rest.

The experiment deals with Peroxisome proliferator-activated receptor gamma (Homo sapiens) (UniProt P37231). Nature of the experiment: PPARgamma agonists recruiting SRC-1 coactivator, primary screen, biochemical (AID 631).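 Also: 0% = DMSO and 100% = reference agonist.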 As to conditions: PPARgamma-SRC-1 coactivator recruitment biochemical assay; at 8 µM; stronger effect = higher value.
Regarding `CC(C)C(=O)NC(Sc1ccccc1)C(Cl)(Cl)Cl` (stereo not given), the activation was inactive: 0.9%. In the case of `O=P(Nc1nccs1)(c1ccccc1)c1ccccc1`, the activation is inactive: 5.7%.

Take `c1nnnn1CCn1cnnn1`: the activation is inactive: -0.9%. With `CC(=O)NC(SC(=S)N(C)C)C(Cl)(Cl)Cl` (stereo not given) the figure was inactive: -5.3%.

For the molecule `O=C(OC1CN2CCC1CC2)c1cccc(Cl)c1` (stereo not given), the activation was inactive: 4.6%. `C(Cc1nn[nH]n1)Cc1nn[nH]n1`: the activation was inactive: 6.6%. For `O=P(Nc1ccccn1)(c1ccc(Br)cc1)c1ccc(Br)cc1`, the activation was inactive: 5.3%. With `CCC(=O)N1C2C3N(C(=O)CC)C1C1N(C(=O)CC)C(C(N1C(=O)CC)N3C(=O)CC)N2C(=O)CC` the figure was inactive: 1.5%; with `COC(=O)c1cc2c(s1)N=C(c1ccccc1)N(C)P2(=O)N1CCOCC1` (stereo not given), inactive: 2%. In the case of `CC(=O)NC(SC(=S)N(CC(C)C)CC(C)C)C(Cl)(Cl)Cl` (stereo not given), the activation was inactive: 3.4%. With `Cc1ccc(OP(=O)(Nc2ccccn2)Oc2ccc(C)cc2)cc1` the figure was inactive: -7.6%; with `O=c1c2cc([N+](=O)[O-])ccc2[nH]c2c([N+](=O)[O-])cc([N+](=O)[O-])cc12`, inactive: 0.8%. With `c1ccc(-c2nn[nH]n2)c(-c2nn[nH]n2)c1` the figure was inactive: 2.7%; with `CCOC(=O)NC(Sc1ccccc1)C(Cl)(Cl)Cl` (stereo not given), inactive: 1%; with `CCNC(=S)/N=C(\N)N[N+](=O)[O-]`, inactive: 1.6%. With `O=C(NC1CCS(=O)(=O)C1)NP(=S)(Oc1ccccc1)Oc1ccccc1` (stereo not given) the figure was inactive: 12.5%. Take `CC(=O)Nc1ccc(Oc2c([N+](=O)[O-])cc([N+](=O)[O-])cc2[N+](=O)[O-])cc1`: the activation was inactive: -3.5%. With `O=P1(Nc2nc3ccc(Cl)cc3s2)COc2ccccc2O1` (stereo not given) the figure was inactive: -0.6%. On to `CCOc1ccc(C2=NCC(CBr)S2)cc1` (stereo not given), for which the activation was inactive: 5.4%. As to `CC(C)(C)C(=O)NC(Sc1ccccc1)C(Cl)(Cl)Cl` (stereo not given), the activation is inactive: -2.5%. For the molecule `Oc1ccccc1CNc1ccccn1`, the activation is inactive: 1.6%. Turning to `O=C(NC(Sc1ccncn1)C(Cl)(Cl)Cl)c1ccccc1` (stereo not given), the activation is inactive: -0.2%. In the case of `Cc1c2non([O-])c-2c(C)[n+](=O)[n+]1[O-]`, the activation is inactive: 5.1%.

Consider `CC(C)CC(=O)NC(Sc1ccc(Cl)cc1)C(Cl)(Cl)Cl` (stereo not given), for which the activation was inactive: -4.1%. `Cc1ccc(N/C(=N/P(=O)(N2CCOCC2)N2CCOCC2)N2CCOCC2)cc1`: the activation is inactive: -0.1%. As for `NC(=O)c1cc([N+](=O)[O-])cc([N+](=O)[O-])c1N`, the activation is inactive: 0.4%. With `CN1CCCC(OC(=O)C(c2ccccc2)c2ccccc2)C1` (stereo not given) the figure was inactive: 10.2%; with `Clc1ccc(Cl)c(NC2=NCC(CBr)S2)c1` (stereo not given), inactive: 8.2%. As to `COc1ccccc1OP(=O)(Nc1ccc(C)cn1)Oc1ccccc1OC`, the activation was inactive: 12.9%.

As for `CCN(N=Nc1nonc1N)c1nonc1N`, the activation is inactive: -0.2%. Regarding `Cc1cc(SC(NC(=O)c2ccc(F)cc2)C(Cl)(Cl)Cl)ncn1` (stereo not given), the activation is inactive: -0.1%.

Consider `CCOP(=O)(Nc1ccccc1)OCC`, for which the activation was inactive: 2.8%. As to `O=[N+]([O-])c1ncn(CCn2ncnc2[N+](=O)[O-])n1`, the activation is inactive: -0.5%. Consider `CCN(/C(=N/P(=O)(N1CCOCC1)N1CCOCC1)N1CCOCC1)c1ccc(OC)cc1`, for which the activation was inactive: -0.5%. Take `CC1CCN(C(=O)Oc2c(Cl)cc(Cl)c3cccnc23)CC1`: the activation was inactive: 4.7%. Turning to `CC(C)=N/N=C(\N)N[N+](=O)[O-]`, the activation is inactive: -2.6%. Turning to `CN(C)C(=O)OCCc1n(C)cc[n+]1C`, the activation is inactive: -8.8%. In the case of `COc1ccc(C2=NCC(CBr)S2)cc1` (stereo not given), the activation was inactive: -3.5%. As for `Cc1ccc(NP(=O)(Oc2ccccc2)Oc2ccccc2)nc1`, the activation was inactive: -9.7%. Take `CCc1nc2c(n1)c1c(non1O)c1c2no[n+]1[O-]`: the activation is inactive: 1.6%. Consider `O=[N+]([O-])c1cc([N+](=O)[O-])c(CCNc2ccccc2)c([N+](=O)[O-])c1`, for which the activation was inactive: 5.1%.

For the molecule `O=[N+]([O-])c1cccc2n[nH]nc12`, the activation was inactive: 8.8%. Regarding `CC(=O)N1C2C3N(C(C)=O)C1C1N(C(C)=O)C(C(N1C(C)=O)N3C(C)=O)N2C(C)=O`, the activation is inactive: 0.3%.

Consider `CCC(C)N(CC(C)C)C(=S)SC(NC(C)=O)C(Cl)(Cl)Cl` (stereo not given), for which the activation was inactive: 7.1%. In the case of `COP1(=S)c2c(C)nn(CCC#N)c2N=C(c2ccc(F)cc2)N1C` (stereo not given), the activation is inactive: 2.6%.

On to `O=C(COc1ccccc1)OC1CN2CCC1CC2` (stereo not given), for which the activation is inactive: -0.4%. Regarding `O=P(Nc1ccccn1)(c1cccc2ccccc12)c1cccc2ccccc12`, the activation is inactive: 3.7%. Turning to `Cc1cc(SC(NC=O)C(Cl)(Cl)Cl)ncn1` (stereo not given), the activation is inactive: 9.5%. Consider `Cc1cc(SC(NC(=O)c2ccccc2)C(Cl)(Cl)Cl)nc(C(C)C)n1` (stereo not given), for which the activation is inactive: 3.5%. As to `ClCCSc1nnc(-c2cccnc2)o1`, the activation is inactive: 3.6%. Take `CC(C)NC(=O)NP(=O)(Oc1ccccc1)Oc1ccccc1`: the activation was inactive: 15.5%. For the molecule `CCN(CC)C(=S)SC(NC=O)C(Cl)(Cl)Cl` (stereo not given), the activation was inactive: -3.7%. With `O=[N+]([O-])c1cc([N+](=O)[O-])c(-c2ccn[nH]2)s1` the figure was inactive: 9.3%; with `Cc1ccc2nc3c(c(C)c2c1)CC(C(Cl)Cl)S3` (stereo not given), inactive: 2.1%; with `COc1ccc(N/C(=N/P(=O)(N2CCOCC2)N2CCOCC2)N2CCOCC2)cc1`, inactive: 4.3%.

As to `Cc1c2c(nc3ccccc13)SC(C(Cl)Cl)C2` (stereo not given), the activation is inactive: 6.7%. `O=C(OC1CN2CCC1CC2)C12CC3CC(CC(C3)C1)C2` (stereo not given): the activation was inactive: -0.3%. With `Cc1cc(=O)[nH]c(N[N+](=O)[O-])n1` the figure was inactive: 4.4%. As to `COc1ccc2nc(NP(=O)(c3ccccc3)c3ccccc3)sc2c1`, the activation is inactive: -1.2%.

In the case of `Cc1ccc(NCCc2c([N+](=O)[O-])cc([N+](=O)[O-])cc2[N+](=O)[O-])cc1`, the activation is inactive: 5.3%. In the case of `COc1cc(C2NCCC3(OCCO3)C2(C)C)cc(OC)c1OC` (stereo not given), the activation was inactive: 3.9%. Turning to `CCOP(=O)(Nc1cccc2ccccc12)OCC`, the activation is inactive: -0.2%. With `COc1cc(C(=O)NCC2(N3CCOCC3)CCCCC2)cc(Cl)c1OC(C)C` the figure was inactive: 10%.

Turning to `Cc1cccc(OCC(=O)OC2CN3CCC2CC3)c1` (stereo not given), the activation was inactive: -4.6%. In the case of `CCOP1(=S)c2c(C)nn(CCC#N)c2N=C(c2ccc(F)cc2)N1C` (stereo not given), the activation is inactive: -4.9%. With `O=[N+]([O-])c1ccc2c(c1)nnn2O` the figure was inactive: -2.9%; with `CCOP1(=S)c2c(C)nn(CCC#N)c2N=C(c2ccccc2F)N1C` (stereo not given), inactive: -2.7%. Consider `O=P(Nc1nccs1)(Oc1ccccc1)Oc1ccccc1`, for which the activation is inactive: 1.6%.

Turning to `O=P(Nc1nccs1)(c1ccccc1)c1nc2ccccc2s1` (stereo not given), the activation was inactive: 6.7%. With `O=P1(Nc2ncccn2)COc2ccccc2OC1` the figure was inactive: 4.1%. With `Cc1ccc(OCC(=O)OC2CN3CCC2CC3)cc1` (stereo not given) the figure was inactive: 5.4%; with `O=P1(Nc2ccc(Br)cn2)COc2ccccc2OC1`, inactive: -0.1%; with `Cc1nn(-c2ccccc2)c2c1P(=O)(N1CCOCC1)N(C)C(c1ccccc1)=N2` (stereo not given), inactive: 0.8%.

Regarding `CC1CCC(C(C)C)C(OP(=O)(Nc2ccccn2)c2ccccc2)C1` (stereo not given), the activation was inactive: 0.2%. `CN(C)C1(CNC(=O)c2ccc(S(C)(=O)=O)cc2)CCCCC1`: the activation was inactive: 2.4%.

For the molecule `CC(C)/C=N\N=C(\N)N[N+](=O)[O-]`, the activation was inactive: 3.3%. For `CN(C(=O)Cc1ccc(Cl)c(Cl)c1)[C@@H]1CCCC[C@H]1N1CCCC1`, the activation is inactive: -7.7%. With `CC1(CBr)Cn2c(nc3ccccc3c2=O)S1` (stereo not given) the figure was inactive: 5.9%. For the molecule `O=P1(Nc2ccccn2)COc2ccccc2OC1`, the activation was inactive: 9.8%. For `Clc1n[nH]nc1-c1nn[nH][15n]1`, the activation was inactive: 5.6%.
